# Values joined by “and” are separate entries in the source; they are usually repeats but may differ in a detail not shown here. Equal entries are not always repeated.
# Protein sequences, listed by entry. Tags and fused reporters are not part of them. Lines headed by an entry give the natural chain unless they say otherwise; changes in a name come on top.
# UniProt P35372, whole entry, looked up: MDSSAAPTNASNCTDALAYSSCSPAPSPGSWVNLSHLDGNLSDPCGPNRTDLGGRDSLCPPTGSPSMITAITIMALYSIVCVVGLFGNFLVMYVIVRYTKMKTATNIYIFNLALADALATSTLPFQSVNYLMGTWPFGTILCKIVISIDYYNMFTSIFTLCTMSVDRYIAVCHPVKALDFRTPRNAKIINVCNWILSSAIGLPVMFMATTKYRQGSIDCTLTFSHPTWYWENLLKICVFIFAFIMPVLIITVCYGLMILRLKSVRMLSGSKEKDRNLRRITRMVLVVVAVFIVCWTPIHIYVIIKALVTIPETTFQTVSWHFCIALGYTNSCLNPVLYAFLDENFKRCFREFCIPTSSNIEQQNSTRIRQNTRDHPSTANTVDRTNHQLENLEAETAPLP
# UniProt P41145: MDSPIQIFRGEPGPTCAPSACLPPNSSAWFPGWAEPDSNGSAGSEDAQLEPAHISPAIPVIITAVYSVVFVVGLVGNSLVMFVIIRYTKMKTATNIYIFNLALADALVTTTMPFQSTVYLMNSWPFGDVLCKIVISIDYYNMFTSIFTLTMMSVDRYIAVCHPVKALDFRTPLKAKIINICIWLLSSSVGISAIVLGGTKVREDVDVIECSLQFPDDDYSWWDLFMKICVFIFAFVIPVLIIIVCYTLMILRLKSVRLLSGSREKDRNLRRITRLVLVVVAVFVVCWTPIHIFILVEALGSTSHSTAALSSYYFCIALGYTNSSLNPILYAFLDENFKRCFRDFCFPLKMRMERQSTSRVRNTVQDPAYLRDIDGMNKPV
# Key:
# [1] = biological target: Mu-type opioid receptor (Homo sapiens) (UniProt P35372); experiment: In vitro binding property against mu opioid receptor; assay type: single protein
# [2] = biological target: Kappa-type opioid receptor (Homo sapiens) (UniProt P41145); experiment: In vitro binding property against kappa opioid receptor; assay type: single protein
Structure (SMILES),Activity [1],Activity [2]
COc1cc(Cl)cc2c1CC[C@H](N1CCCC1)[C@H]2N(C)C(=O)Cc1ccc(Cl)c(Cl)c1,975 nM,18 nM
COc1cccc2c1CC[C@H](N1CCCC1)[C@H]2N(C)C(=O)Cc1cccc2ccccc12,207 nM,13 nM
COc1cccc2c1CC[C@H](N1CCCC1)[C@H]2N(C)C(=O)COc1ccc(Cl)c(Cl)c1,540 nM,10 nM
COc1cc2c(cc1F)CC[C@H](N1CCCC1)[C@H]2N(C)C(=O)Cc1ccc(Cl)c(Cl)c1,6400 nM,400 nM
COc1cccc2c1CC[C@@H](N1CCCC1)[C@@H]2N(C)C(=O)Cc1ccc(Cl)c(Cl)c1,260 nM,350 nM
CCN(C(=O)Cc1ccc(Cl)c(Cl)c1)[C@H]1c2cccc(OC)c2CC[C@@H]1N1CCCC1,680 nM,120 nM
COc1cccc2c1CC[C@H](N1CCCC1)[C@H]2N(C)C(=O)Cc1ccc(Cl)cc1,2200 nM,66 nM
COc1cccc2c1CC[C@H](N1CCCC1)[C@H]2N(C)C(=O)Cc1c(Cl)cccc1Cl,1340 nM,3250 nM
CN(C(=O)Cc1ccc(Cl)c(Cl)c1)[C@H]1c2ccc(O)c(O)c2CC[C@@H]1N1CCCC1,568 nM,9 nM
CCOc1cccc2c1CC[C@H](N1CCCC1)[C@H]2N(C)C(=O)Cc1ccc(Cl)c(Cl)c1,1630 nM,7 nM
CN(C(=O)Cc1ccc(Cl)c(Cl)c1)[C@H]1c2ccc3ccccc3c2CC[C@@H]1N1CCCC1,4100 nM,56 nM
COc1cccc2c1CC[C@H](N1CCCC1)[C@H]2N(C)C(=O)Cc1ccc(F)c(F)c1,1460 nM,7 nM
COc1ccc(OC)c2c1CC[C@H](N1CCCC1)[C@H]2N(C)C(=O)Cc1ccc(Cl)c(Cl)c1,630 nM,7 nM
COc1cccc2c1CC[C@H](N1CCCC1)[C@H]2N(C)C(=O)Cc1ccc(SC)cc1,690 nM,15 nM
COc1cccc2c1CC[C@H](N1CCCC1)[C@H]2N(C)C(=O)Cc1cccnc1,10000 nM,230 nM
Cc1c(O)ccc2c1CC[C@H](N1CCCC1)[C@H]2N(C)C(=O)Cc1ccc(Cl)c(Cl)c1,1020 nM,32 nM
CN(C(=O)Cc1ccc(Cl)c(Cl)c1)[C@H]1c2cccc(OCC(=O)O)c2CC[C@@H]1N1CCCC1,> 10000 nM,7900 nM
COc1ccc2c(c1)CC[C@H](N1CCCC1)[C@H]2N(C)C(=O)Cc1ccc(Cl)c(Cl)c1,430 nM,8 nM
Cc1ccc2c(c1)CC[C@H](N1CCCC1)[C@H]2N(C)C(=O)Cc1ccc(Cl)c(Cl)c1,700 nM,70 nM
COc1cccc2c1CC[C@H](N1CCCC1)[C@H]2N(C)C(=O)Cc1ccccc1Cl,2500 nM,35 nM

Structure (SMILES),Activity [1],Activity [2]
CN(C(=O)Cc1ccc(Cl)c(Cl)c1)[C@H]1c2ccc(O)c([N+](=O)[O-])c2CC[C@@H]1N1CCCC1,662 nM,5 nM
COc1cccc2c1CC[C@H](N1CCCC1)[C@H]2N(C)C(=O)Cc1ccc2c(c1)OCO2,775 nM,14 nM
CN(C)[C@H]1CCc2ccccc2[C@@H]1N(C)C(=O)Cc1ccc(Cl)c(Cl)c1,2310 nM,870 nM
COc1cccc2c1CC[C@H](N1CCCC1)[C@H]2N(C)C(=O)Cc1ccc(C)c(C)c1,775 nM,8 nM
COc1ccc2c(c1OC)CC[C@H](N1CCCC1)[C@H]2N(C)C(=O)Cc1ccc(Cl)c(Cl)c1,2000 nM,32 nM
CN(C(=O)Cc1ccc(Cl)c(Cl)c1)[C@H]1c2cc(O)ccc2CC[C@@H]1N1CCCC1,45 nM,3 nM
CN(C(=O)Cc1ccc(Cl)c(Cl)c1)[C@H]1c2ccccc2C(C)(C)C[C@@H]1N1CCCC1,277 nM,857 nM
COc1cccc2c1CC[C@H](N1CCCC1)[C@H]2N(C)C(=O)Cc1ccccc1[N+](=O)[O-],3600 nM,39 nM
COc1ccc(CC(=O)N(C)[C@H]2c3cccc(OC)c3CC[C@@H]2N2CCCC2)cc1,900 nM,20 nM
CN(C(=O)Cc1ccc(Cl)c(Cl)c1)[C@@H]1Cc2ccccc2C[C@H]1N1CCCC1,615 nM,20 nM
CN(C(=O)Cc1ccc(Cl)c(Cl)c1)[C@H]1c2ccc(O)cc2CC[C@@H]1N1CCCC1,21 nM,1 nM
COc1cccc2c1CC[C@H](N1CCCC1)[C@H]2N(C)C(=O)Cc1ccc([N+](=O)[O-])cc1,1200 nM,10 nM
COc1cccc2c1CC[C@H](N1CCCC1)[C@H]2N(C)C(=O)Cc1ccncc1,33500 nM,15300 nM
COc1cccc2c1CC[C@H](N1CCCC1)[C@H]2N(C)C(=O)Cc1ccc(N)cc1,> 10000 nM,140 nM
COc1ccc2c(c1)[C@H](N(C)C(=O)Cc1ccc(Cl)c(Cl)c1)[C@@H](N1CCCC1)CC2,1300 nM,94 nM
COc1c([N+](=O)[O-])ccc2c1CC[C@H](N1CCCC1)[C@H]2N(C)C(=O)Cc1ccc(Cl)c(Cl)c1,> 10000 nM,49 nM
COc1cccc2c1CC[C@H](N1CCCC1)[C@H]2N(C)C(=O)Cc1ccsc1,21700 nM,144 nM
COc1cccc2c1CC[C@H](N1CCCC1)[C@H]2N(C)C(=O)Cc1ccc(Cl)cc1Cl,450 nM,12 nM
CN(C(=O)Cc1ccc(Cl)c(Cl)c1)[C@H]1c2cccc(O)c2CC[C@@H]1N1CCCC1,260 nM,5 nM
CCC(=O)Oc1cccc2c1CC[C@H](N1CCCC1)[C@H]2N(C)C(=O)Cc1ccc(Cl)c(Cl)c1,530 nM,4 nM

Structure (SMILES),Activity [1],Activity [2]
COCc1cccc2c1CC[C@H](N1CCCC1)[C@H]2N(C)C(=O)Cc1ccc(Cl)c(Cl)c1,> 10000 nM,19 nM
COc1cccc2c1CC[C@H](N1CCCC1)[C@H]2N(C)C(=O)Cc1cccc2sccc12,285 nM,8 nM
CN(C(=O)Cc1ccc(Cl)c(Cl)c1)[C@H]1c2ccccc2CC[C@@H]1N1CCCC1,545 nM and 453 nM,10 nM
CN(C(=O)Cc1ccc(Cl)c(Cl)c1)[C@H]1c2ccccc2C(c2ccccc2)C[C@@H]1N1CCCC1 (stereo not given in full),1200 nM,190 nM
COc1ccc(CC(=O)N(C)[C@H]2c3cccc(OC)c3CC[C@@H]2N2CCCC2)cc1OC,2660 nM,120 nM
COc1cccc2c1CC[C@H](N1CCCC1)[C@H]2N(C)C(=O)Cc1csc2ccccc12,245 nM,15 nM
CN(C(=O)Cc1ccc(Cl)c(Cl)c1)C1CCCCC1N1CCCC1 (stereo not given),825 nM,15 nM
COc1cccc2c1CC[C@H](N1CCCC1)[C@H]2N(C)C(=O)Cc1c(Cl)ccc(Cl)c1Cl,350 nM,14 nM
COc1cccc2c1CC[C@H](N1CCCC1)[C@H]2N(C)C(=O)Cc1ccc(Br)cc1,540 nM,34 nM
CN(C(=O)Cc1ccc(Cl)c(Cl)c1)[C@H]1c2cccc(OCC(N)=O)c2CC[C@@H]1N1CCCC1,335 nM,15 nM
CN(C(=O)Cc1ccc(Cl)c(Cl)c1)[C@H]1c2cc(O)c(O)cc2CC[C@@H]1N1CCCC1,29 nM,1 nM
COc1cccc2c1CC[C@H](N(C)Cc1ccccc1)[C@H]2N(C)C(=O)Cc1ccc(Cl)c(Cl)c1,> 10000 nM,3700 nM
CN(C(=O)Cc1ccc(Cl)c(Cl)c1)[C@H]1c2ccccc2CCC[C@@H]1N1CCCC1,6750 nM,87 nM
CN(C(=O)Cc1ccc(Cl)c(Cl)c1)[C@H]1c2ccccc2C[C@@H]1N1CCCC1,756 nM,7 nM
COc1cccc2c1CC[C@H](N1CCCC1)[C@H]2N(C)C(=O)Cc1ccc(F)cc1,1840 nM,19 nM
CN(C(=O)Cc1ccc(Cl)c(Cl)c1)[C@H]1c2cccc(CO)c2CC[C@@H]1N1CCCC1,4380 nM,5 nM
COc1cccc2c1CC[C@H](N1CCCC1)[C@H]2N(C)C(=O)Cc1cccc(Cl)c1,1600 nM,12 nM
COc1cccc2c1CC[C@H](N1CCCC1)[C@H]2N(C)C(=O)Cc1ccc(Cl)c(Cl)c1,304 nM and 750 nM,6 nM and 7 nM
COc1cccc2c1CC[C@H](N1CCCC1)[C@H]2N(C)C(=O)Cc1cccc([N+](=O)[O-])c1,510 nM,6 nM
COc1cccc2c1CC[C@H](N1CCCC1)[C@H]2N(C)C(=O)Cc1ccc(C(F)(F)F)cc1,1200 nM,12 nM

# From ChEMBL document CHEMBL1159140, “DuP 747: sar study” (1992)
